Results: patent publication EP4831299A1, “VIDEO DISPLAY TERMINAL ASSOCIATED DRY EYE DISEASE DIAGNOSTIC BIOMARKER BASED ON EPITHELIAL-MESENCHYMAL TRANSITION AND FIBROSIS, AND THERAPEUTIC DRUG” (dated 2026)

Key:
[1] = system: VDT-associated dry eye disease model mice; assay: Corneal fluorescein sodium staining in ICES mouse model of VDT-associated dry eye disease; details: 0.5% eye drops, summary statement
Method: • 1) Preparation of 0.5% Anti-Fibrotic Agent Solution: • (1) 20 mg of anti-fibrotic agent was weighed; • (2) the agent was completely dissolved in 40 µL DMSO; • (3) normal saline was slowly added to a total volume of 4 mL; and • (4) the solution was placed on a shaker overnight to ensure thorough mixing; final concentration: 0.5% (w/v). • 2) Preparation of Control Vehicle Solution: • (1) 40 µL DMSO was measured; • (2) normal saline was added to a total volume of 4 mL; and • (3) mixed gently.
(§1) This example used the Intelligent Controlled Environment System (ICES) to establish a mouse model of VDT-associated dry eye disease. Mice were placed in the ICES under adverse conditions simulating a VDT environment for 2 weeks to induce VDT-associated dry eye disease formation. After modeling was completed, mice continued to be raised under ICES conditions to maintain the VDT-associated dry eye disease state, more closely resembling real-world conditions. […]
0.5 µL of 5% fluorescein sodium solution was instilled into the conjunctival sac of mice using a micropipette. […] Scoring was recorded by a fixed examiner in a masked manner, according to the National Eye Institute standard grading system. […] Each region was scored 0-4 grade (0: no punctate staining; 1 grade: 1-5 punctate stains; 2 grade: 6-15 punctate stains; 3 grade: 16-30 punctate stains; 4 grade: 30 or more punctate stains). […]

[2] = system: Twist1; assay: Real-time quantitative PCR of conjunctival tissue, Twist1; details: qPCR, n=4, 0.5% eye drops twice daily
Method: Total RNA was extracted from conjunctival tissue according to the manufacturer's instructions (Cat: 74106, RNeasy mini kit, Qiagen, Crawley, U.K.). cDNA was synthesized from 0.5 µg of total RNA using random primers and M-MLV reverse transcriptase (Cat: 28025013, Applied Biosystems, Paisley, UK). Quantitative real-time polymerase chain reaction (qRT-PCR) analysis was performed using Power SYBR Green PCR Master Mix (Cat: A25742, Applied Biosystems, Paisley, UK) and Applied Biosystems Quant Studio 6 Real-Time PCR System (Applied Biosystems, Paisley, UK). Results were analyzed using the comparative threshold cycle (CT) method and normalized with GAPDH as an endogenous reference.
• Twist1: forward, 5'-[…]-3'; reverse, 5'-[…]-3'; • IL-1β: forward, 5'-[…]-3', reverse, 5'-[…]-3'; • IL-17a: forward, 5'-[…]-3', reverse, 5'-[…]-3'; • IFNγ: forward, 5'-[…]-3', reverse, 5'-[…]-3'; • TNFα: forward, 5'-[…]-3', reverse, 5'-[…]-3'.
as §1

[3] = system: CCL2; assay: Flow cytometry of conjunctival tissue, CCL2 expression of CK PAN / CD140a cells; details: fibroblast-like epithelial cells of conjunctiva, n=3, 0.5% eye drops
Method: After euthanizing the mice, the palpebral and bulbar conjunctiva were excised to obtain conjunctival tissue. Conjunctival tissue from three mice per group was pooled as one sample and stored in MACS Tissue Storage Solution (Miltenyi Biotec). The samples were washed in phosphate-buffered saline containing 20 mM EDTA and shaken at 37°C for 15 minutes. The tissues were then cut into fragments and digested in RPMI 1640 medium (Thermo Fisher Scientific) containing collagenase IV (Gibco; 1000 U/mL) at 37°C for 30 minutes, followed by filtration through a 70 µm cell strainer. Red blood cells and dead cells were removed using red blood cell lysis buffer (Sigma Aldrich) and Dead Cell Removal Kit (Miltenyi Biotec), respectively. 10 µL of the suspension was counted under an inverted microscope using a hemocytometer. Cells were observed under a microscope after trypan blue staining.
Single-cell suspensions were prepared as described above. For cell surface staining, cells were blocked with CD16/32 FcR-block (Cat: 101302, BioLegend) for 10 minutes. After staining with Fixable Viability Stain (Cat: 564406, BD), cells were stained with surface markers at 4°C for 30 minutes. […] Flow cytometry data were analyzed using Flowjo software (version 10.5.3, BD). […]

[4] = system: immune cell infiltration in the conjunctival stroma; assay: Immunofluorescence of conjunctiva, anti-CD45 staining; details: n=3, 0.5% eye drops
Method: Conjunctival tissue and eyeballs from three mice per group were embedded in Optimal Cutting Temperature compound (Cat: 4583, SAKURA) and frozen in liquid nitrogen. The samples were then sectioned into 10 µm-thick sections and stored at -80°C. For staining, sections were thawed at room temperature. After thawing, they were fixed in 4% formaldehyde for 15 minutes. Then, sections were blocked with blocking buffer (Cat: ab64226, Abcam) containing 0.4% Triton X-100 (Cat: T8787, Sigma Aldrich) at room temperature for >60 minutes. Subsequently, sections were incubated with primary antibodies and corresponding fluorescently conjugated secondary antibodies according to the manufacturer's recommended sequence. 4',6-Diamidino-2-phenylindole (Cat: S36938, DAPI, Invitrogen) was added for 5 minutes. Images were captured using a laser scanning confocal microscope (LSM880, Carl Zeiss Meditec, Sartrouville, Germany).
anti-IGFBP2 antibody (dilution: 1:500, Cat: ab188200, abcam), anti-CD45 antibody (dilution: 1:200, Cat: MAB114, R&D Systems). Other antibodies were as described in Example 1.
This example used the Intelligent Controlled Environment System (ICES) to establish a mouse model of VDT-associated dry eye disease. Mice were placed in the ICES under adverse conditions simulating a VDT environment for 2 weeks to induce VDT-associated dry eye disease formation. […]

## Cc1ccc(=O)n(-c2ccccc2)c1
[1]
  corneal damage: significantly improve
[2]
  expression level of Twist1: significantly downregulated
[3]
  CCL2 expression: reduce
[4]
  immune cell infiltration: reduce
